The list shows a part of the results, in another mix than the full data. Activity calls are given as the source filed them. No stated cut-off is given here; in the data, active means activation above about 65%; inactive means the rest.
Target: Lysosomal acid glucosylceramidase (Homo sapiens) (UniProt P04062)
Test: GBA activity enhancers in patient fibroblasts, primary screen, cell-based (AID 784);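 further: 0% = vehicle wells and 100% = positive control wells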
Conditions: L444P Gaucher fibroblasts, 4-MU-glucoside fluorescence, 3 days; at 10 µM; active compounds read high

By UniProt entry, the sequences of proteins in these tests, tags left out.
UniProt P04062, whole entry L483P: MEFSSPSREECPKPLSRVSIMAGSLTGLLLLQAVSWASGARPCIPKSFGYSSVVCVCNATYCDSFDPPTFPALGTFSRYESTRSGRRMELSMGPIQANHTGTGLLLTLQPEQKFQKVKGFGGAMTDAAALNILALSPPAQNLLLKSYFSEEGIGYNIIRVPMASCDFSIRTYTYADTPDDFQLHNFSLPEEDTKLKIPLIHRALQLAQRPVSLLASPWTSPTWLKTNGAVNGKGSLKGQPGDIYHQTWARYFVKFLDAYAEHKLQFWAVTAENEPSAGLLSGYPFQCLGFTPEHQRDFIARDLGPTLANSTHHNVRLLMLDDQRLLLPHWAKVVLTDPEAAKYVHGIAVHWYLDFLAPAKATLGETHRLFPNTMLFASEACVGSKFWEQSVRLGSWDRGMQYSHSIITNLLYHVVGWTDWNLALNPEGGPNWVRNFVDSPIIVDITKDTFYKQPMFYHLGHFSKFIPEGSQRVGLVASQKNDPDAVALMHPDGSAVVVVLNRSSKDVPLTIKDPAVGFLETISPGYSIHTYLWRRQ

Compound | activation
COc1ccccc1OP(C)(=O)Nc1c(C)n(C)n(-c2ccccc2)c1=O (centres undefined) | inactive: -0.9%
CP(=O)(Oc1ccccc1)N1CCOC1=O (centres undefined) | inactive: -15.6%
CP(=O)(Nc1ccc2c(c1)OCCO2)Oc1ccccc1 (centres undefined) | inactive: 14.8%
Cc1ccccc1NP(C)(=O)Nc1ccccc1C | inactive: -4.53%
CCOP(C)(=S)SCC(=O)NC(C)(CC)C(=O)O (centres undefined) | inactive: 2.04%
CP(=O)(Nc1ccccc1F)Oc1ccccc1 (centres undefined) | inactive: 8.06%
Cc1nc2ccc3ccccc3c2s1.O=[N+]([O-])c1cc([N+](=O)[O-])c(O)c([N+](=O)[O-])c1 | inactive: -9.98%
CP(=S)(Nn1cnnc1)Oc1ccccc1 (centres undefined) | inactive: -6.23%
COc1ccccc1OP(C)(=O)Nc1ccc(C)cc1 (centres undefined) | inactive: -9.34%
